Results: patent US20230277630A1, “METHODS AND COMPOSITIONS FOR TREATING AMYOTROPHIC LATERAL SCLEROSIS” (Amylyx Pharmaceuticals, Inc., priority 2022, published 2023)

Experiments:
P-gp and BCRP [1] = details: human, Caco-2, 10 μM, pH 7.4
P-gp and BCRP [2] = experiment: P-gp and BCRP substrate assessment, bidirectional permeability in C2BBe1 cells; details: 10 μM probe, batch used with Sol_1, Sol_3, and Sol_4, single replicates

Row | AP-to-BL Recovery (P-gp and BCRP [2]) [%] | SMILES | AP-to-BL Recovery (P-gp and BCRP [1]) [%] | BL-to-AP Recovery (P-gp and BCRP [1]) [%]
1 | – | Nc1nc(Cl)nc2c1ncn2[C@H]1C[C@H](O)[C@@H](CO)O1 [cladribine] | 86.8 | 97.9
2 | 82.4 | C[C@H]1O[C@@H](O[C@H]2[C@@H](O)C[C@H](O[C@H]3[C@@H](O)C[C@H](O[C@H]4CC[C@@]5(C)[C@H](CC[C@@H]6[C@@H]5C[C@@H](O)[C@]5(C)[C@@H](C7=CC(=O)OC7)CC[C@]65O)C4)O[C@@H]3C)O[C@@H]2C)C[C@H](O)[C@@H]1O [digoxin] | – | –

Read-outs that look alike come from different tables or passages of the source.
